Earlier results on one substance are cited in patent US9239331B2, “Method for predicting the response to HER2-directed therapy” (Ventana Medical Systems, Inc., priority 2002, dated 2016).

One data set has as its system BT474 cells. The settings on record: BT474 erbB receptor-overexpressing carcinoma cell line; cited from earlier work.
Another data set concerns MKN7 cells. The settings on record: MKN7 erbB receptor-overexpressing carcinoma cell line; cited from earlier work.

With trastuzumab [HERCEPTIN®], the “response of cells to HERCEPTIN®” value is on record as “respond” in the data set with BT474 cells and “do not” in the data set on MKN7 cells.
